Read-outs that look alike come from different tables or passages of the source.
Biological target: 11β-HSD1 (Homo sapiens (Human), UniProt P28845)
Assay: Biological Test Example 1: inhibition of a microsomal preparation of 11β-HSD1 (SPA)
Format: biochemical
Procedure: All reactions were carried out at rt in 96 well clear flexible PET Microbeta plates (PerkinElmer). […] After a 10 minute pre-incubation, 50 μL of enzyme solution containing microsomes isolated from CHO cells overexpressing human 11-HSD1 (10-20 μg/ml of total protein) was added, and the plates were incubated for 90 minutes at rt. The reaction was stopped by adding 50 μl of the SPA beads suspension containing 10 μM […], 5 mg/ml protein A coated YSi SPA beads (GE Healthcare) and 3.3 μg/ml of anti-cortisol antibody (East Coast Biologics) in Superblock buffer (Bio-Rad). The plates were shaken for 120 minutes at rt, and the SPA signal corresponding to [^3H]cortisol was measured on a Microbeta plate reader.

Amino acid sequences for entries named in this document (tags omitted). A change or cut given only in a name is not applied to a line headed by its entry.
UniProt P28845: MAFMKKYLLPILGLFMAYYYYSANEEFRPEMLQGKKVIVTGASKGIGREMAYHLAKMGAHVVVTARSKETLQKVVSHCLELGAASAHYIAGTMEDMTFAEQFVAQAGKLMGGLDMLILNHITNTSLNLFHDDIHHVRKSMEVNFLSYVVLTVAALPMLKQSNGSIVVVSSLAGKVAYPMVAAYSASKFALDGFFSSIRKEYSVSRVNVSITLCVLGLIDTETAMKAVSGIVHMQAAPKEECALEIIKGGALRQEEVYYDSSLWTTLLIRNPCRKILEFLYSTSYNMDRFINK

[1] = microsomes from CHO cells overexpressing human 11β-HSD1, read-out: IC50 Range

IC50 [1] [nM] | IC50 (read-out: IC50) [nM] | SMILES
< 100 | 2.99 | NC(=O)C12CC3CC(C1)C(OC(=O)N1CCC(c4ncc(F)cn4)C1)C(C3)C2 (single isomer, unassigned) [EXAMPLE 41 Isomer 1, 1-carbamoyl-4-adamantyl 3-(5-fluoropyrimidin-2-yl)pyrrolidine-1-carboxylate]
< 100 | 48.8 | NC(=O)C12CC3CC(C1)C(OC(=O)N1CCC(c4ncc(F)cn4)C1)C(C3)C2 (single isomer, unassigned) [EXAMPLE 41 Isomer 2, 1-carbamoyl-4-adamantyl 3-(5-fluoropyrimidin-2-yl)pyrrolidine-1-carboxylate]
< 100 | 3.11 | COc1cnc(C2CCN(C(=O)OC3C4CC5CC3CC(C(N)=O)(C5)C4)C2)nc1 (single isomer, unassigned) [EXAMPLE 44 Isomer 1, 1-carbamoyl-4-adamantyl 3-(5-methoxypyrimidin-2-yl)pyrrolidine-1-carboxylate]
> 100 | > 100 | COc1cnc(C2CCN(C(=O)OC3C4CC5CC3CC(C(N)=O)(C5)C4)C2)nc1 (single isomer, unassigned) [EXAMPLE 44 Isomer 2, 1-carbamoyl-4-adamantyl 3-(5-methoxypyrimidin-2-yl)pyrrolidine-1-carboxylate]
< 100 | 2.7 | NC(=O)C12CC3CC(C1)C(OC(=O)N1CCC(c4nccc(C(F)(F)F)n4)C1)C(C3)C2 (single isomer, unassigned) [EXAMPLE 48 Isomer 1, trans-1-carbamoyl-4-adamantyl 3-(4-(trifluoromethyl)pyrimidin-2-yl)pyrrolidine-1-carboxylate]
> 100 | > 100 | NC(=O)C12CC3CC(C1)C(OC(=O)N1CCC(c4nccc(C(F)(F)F)n4)C1)C(C3)C2 (single isomer, unassigned) [EXAMPLE 48 Isomer 2, cis-1-carbamoyl-4-adamantyl 3-(4-(trifluoromethyl)pyrimidin-2-yl)pyrrolidine-1-carboxylate]

The next lines start with the compound.

SMILES | IC50 [1] [nM] | IC50 (read-out: IC50) [nM]
O=C(OC1C2CC3CC1CC(O)(C3)C2)N1CCC(c2ncc(Cl)cn2)C1 (single isomer, unassigned) [EXAMPLE 24 Isomer 1, trans-1-hydroxy-4-adamantyl 3-(5-chloropyrimidin-2-yl)pyrrolidine-1-carboxylate] | < 100 | 2.29
O=C(OC1C2CC3CC1CC(O)(C3)C2)N1CCC(c2ncc(Cl)cn2)C1 (single isomer, unassigned) [EXAMPLE 24 Isomer 2, cis-1-hydroxy-4-adamantyl 3-(5-chloropyrimidin-2-yl)pyrrolidine-1-carboxylate] | > 100 | ≥ 100
Cc1ccc(C2CCN(C(=O)OC3C4CC5CC3CC(C(N)=O)(C5)C4)C2)nn1 (single isomer, unassigned) [EXAMPLE 37 Isomer 1, trans-1-carbamoyl-4-adamantyl 3-(6-methylpyridazin-3-yl)pyrrolidine-1-carboxylate] | < 100 | 16.3
Cc1ccc(C2CCN(C(=O)OC3C4CC5CC3CC(C(N)=O)(C5)C4)C2)nn1 (single isomer, unassigned) [EXAMPLE 37 Isomer 2] | > 100 | > 100
Cc1csc(C2CCN(C(=O)OC3C4CC5CC3CC(C(N)=O)(C5)C4)C2)n1 (single isomer, unassigned) [EXAMPLE 42 Isomer 1, transl-carbamoyl-4-adamantyl 3-(4-methylthiazol-2-yl)pyrrolidine-1-carboxylate] | < 100 | 2.08
Cc1csc(C2CCN(C(=O)OC3C4CC5CC3CC(C(N)=O)(C5)C4)C2)n1 (single isomer, unassigned) [EXAMPLE 42 Isomer 2, cis-1-carbamoyl-4-adamantyl 3-(4-methylthiazol-2-yl)pyrrolidine-1-carboxylate] | > 100 | > 100

Reference: patent US9163012B2, “Carbamate and urea inhibitors of 11β-hydroxysteroid dehydrogenase 1” (Vitae Pharmaceuticals, Inc., priority 2009, dated 2015)
